How the values were obtained:
5-HT2B receptor = 5-HT2B receptor (Homo sapiens, UniProt P41595); conditions: agonist activity, Ca2+ flux, CHO-K1 cells
5-HT2A receptor = 5-HT2A receptor (Homo sapiens, UniProt P28223); experiment: FLIPR Ca2+ flux functional assay, 5-HT2A; format: cell-based
Experimental: Activity at 5-HT2A, 5-HT2B and 5-HT2C receptors was determined using a FLIPR Ca^2+ flux assay at WuXi AppTec Co. Ltd. (Hong Kong) Discovery Biology Unit according to their standard protocols. Briefly, stably transfected cells expressing the receptor of interest (HEK293 for 5-HT2A and 5-HT2C; CHO-K1 for 5-HT2B) were grown and plated in a 384 well plate and incubated at 37° C. and 5% CO2 overnight. A 250 mM stock solution of probenecid in FLIPR calcium assay buffer (10 mL) was freshly prepared and combined with a fluorescent dye (Fluo-4 Direct) to give a final assay concentration of 2.5 mM. Reference compounds were 4-fold serially diluted and the screening compounds were 3-fold serially diluted in 100% DMSO for 10 points using Agilent Bravo, and 750 nL was added to a 384 well compound plate using Echo along with 30 μL assay buffer. The fluorescent dye was then added to the assay plate along with assay buffer to a final volume of […]. The cell plate was incubated for 50 min at 37° C. and 5% CO2 and placed into the FLIPR Tetra along with the compound plate. 10 μL of references and compounds were then transferred from the compound plate into the cell plate and the fluorescent signal was read.

Sequences of proteins named here, by UniProt entry; tags and fusion partners are left off. Residues count along the entry.
UniProt P41595, whole entry: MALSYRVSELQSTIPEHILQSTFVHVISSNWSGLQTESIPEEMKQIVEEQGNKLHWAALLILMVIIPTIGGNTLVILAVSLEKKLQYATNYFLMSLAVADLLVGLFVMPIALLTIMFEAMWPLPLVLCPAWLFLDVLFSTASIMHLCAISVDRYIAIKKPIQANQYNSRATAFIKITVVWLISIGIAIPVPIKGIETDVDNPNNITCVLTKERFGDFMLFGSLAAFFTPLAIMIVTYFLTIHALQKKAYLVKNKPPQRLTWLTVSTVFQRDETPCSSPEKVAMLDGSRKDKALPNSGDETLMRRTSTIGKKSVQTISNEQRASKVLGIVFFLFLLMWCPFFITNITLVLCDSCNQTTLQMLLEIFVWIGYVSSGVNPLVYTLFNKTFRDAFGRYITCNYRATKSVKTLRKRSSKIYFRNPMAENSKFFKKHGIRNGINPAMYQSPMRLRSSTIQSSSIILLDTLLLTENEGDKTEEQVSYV
UniProt P28223, whole entry: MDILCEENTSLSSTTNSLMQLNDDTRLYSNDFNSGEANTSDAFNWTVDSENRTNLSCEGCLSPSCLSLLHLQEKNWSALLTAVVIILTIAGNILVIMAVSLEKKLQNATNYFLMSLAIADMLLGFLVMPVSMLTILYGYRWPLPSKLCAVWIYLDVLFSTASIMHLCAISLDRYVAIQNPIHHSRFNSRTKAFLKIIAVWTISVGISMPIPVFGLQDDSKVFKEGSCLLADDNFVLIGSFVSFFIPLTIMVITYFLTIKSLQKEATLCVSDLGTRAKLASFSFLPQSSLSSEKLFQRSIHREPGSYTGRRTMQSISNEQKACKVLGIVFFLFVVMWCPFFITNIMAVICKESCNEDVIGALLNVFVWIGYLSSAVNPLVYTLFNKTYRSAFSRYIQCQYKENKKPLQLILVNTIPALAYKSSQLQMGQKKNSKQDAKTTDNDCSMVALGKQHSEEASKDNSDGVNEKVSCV
UniProt P28335, 33-458 limits assumed: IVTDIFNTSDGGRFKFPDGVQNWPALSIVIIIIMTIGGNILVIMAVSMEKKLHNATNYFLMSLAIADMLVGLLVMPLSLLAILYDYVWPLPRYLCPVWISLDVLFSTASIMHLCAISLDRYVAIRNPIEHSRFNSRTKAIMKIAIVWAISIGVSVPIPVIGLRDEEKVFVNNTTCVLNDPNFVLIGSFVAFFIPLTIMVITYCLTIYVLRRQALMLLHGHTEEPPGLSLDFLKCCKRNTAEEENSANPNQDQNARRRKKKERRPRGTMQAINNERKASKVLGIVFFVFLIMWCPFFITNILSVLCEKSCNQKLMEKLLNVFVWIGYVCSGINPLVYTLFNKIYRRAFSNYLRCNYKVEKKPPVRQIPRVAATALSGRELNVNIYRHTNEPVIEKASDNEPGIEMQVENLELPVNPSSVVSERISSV

5-HT2C receptor = 5-HT2C receptor (Homo sapiens, UniProt P28335); conditions: agonist activity, Ca2+ flux, HEK293 cells

COc1cc(C)cc2[nH]cc(CCN(C)C)c12
5-HT2B Emax (5-HT2B receptor): 0.19%
EC50 (5-HT2B receptor; read-out: 5-HT2B EC50): > 10000 nM
5-HT2A Emax (5-HT2A receptor; agonist activity, HEK293 cells): 63.73%
EC50 (5-HT2A receptor; read-out: 5-HT2A EC50, agonist activity, HEK293 cells): 22.6 nM
5-HT2C Emax (5-HT2C receptor): 74.32%
EC50 (5-HT2C receptor; read-out: 5-HT2C EC50): 25.7 nM
